Experimental data as given in patent US20070213346A1, “Substituted 4-Alkyl-And 4-Alkanoyl-Piperidine Derivatives And Their Use As Neurokinin Antagonists” (priority 2004, published 2007).

Protein sequences, listed by entry. Tags and fused reporters are not part of them.
UniProt P29371, whole entry: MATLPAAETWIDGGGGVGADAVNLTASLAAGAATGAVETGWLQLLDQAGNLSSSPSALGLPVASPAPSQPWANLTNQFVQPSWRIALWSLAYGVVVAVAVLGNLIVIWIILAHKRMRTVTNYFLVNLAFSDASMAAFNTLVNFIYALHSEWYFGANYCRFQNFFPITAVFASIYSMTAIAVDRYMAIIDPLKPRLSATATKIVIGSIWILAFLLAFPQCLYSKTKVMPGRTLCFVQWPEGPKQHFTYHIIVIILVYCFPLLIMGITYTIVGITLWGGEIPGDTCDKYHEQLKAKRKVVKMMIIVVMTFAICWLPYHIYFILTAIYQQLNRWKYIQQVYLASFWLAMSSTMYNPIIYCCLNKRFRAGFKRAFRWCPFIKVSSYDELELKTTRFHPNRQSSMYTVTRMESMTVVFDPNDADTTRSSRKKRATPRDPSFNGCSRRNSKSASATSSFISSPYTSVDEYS
UniProt P25103, whole entry: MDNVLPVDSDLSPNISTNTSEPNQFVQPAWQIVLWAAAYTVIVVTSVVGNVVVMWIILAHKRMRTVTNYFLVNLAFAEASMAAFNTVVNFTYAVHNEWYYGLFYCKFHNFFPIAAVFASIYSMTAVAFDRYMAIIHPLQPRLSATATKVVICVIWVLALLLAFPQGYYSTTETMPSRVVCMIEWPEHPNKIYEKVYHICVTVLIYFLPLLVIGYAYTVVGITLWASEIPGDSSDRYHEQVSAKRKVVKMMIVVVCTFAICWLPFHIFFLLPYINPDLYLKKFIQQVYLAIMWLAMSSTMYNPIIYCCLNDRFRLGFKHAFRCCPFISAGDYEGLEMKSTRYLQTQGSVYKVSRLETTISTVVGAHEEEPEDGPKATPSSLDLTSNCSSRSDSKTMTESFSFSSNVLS

Tests used:
NK3 = NK3 (Homo sapiens, UniProt P29371); assay: Signal transduction (ST), intracellular Ca++ FLIPR, NK3; type: cell-based; details: antagonist, Ca++ transient peak
Procedure: [The source words this procedure for another target and reports this target under the same test.] (§1) This test evaluates in vitro functional NK1 antagonistic activity. For the measurements of intracellular Ca^++ concentrations the cells were grown on 96-well (black wall/transparent bottom) plates from Costar for 2 days until they reached confluence. The cells were loaded with 2 μM Fluo3 in DMEM containing 0.1% BSA and 2.5 mM probenecid for 1 h at 37° C. They were washed 3× with a Krebs buffer (140 mM NaCl, 1 mM MgCl2x6H2O, 5 mM KCl, 10 mM glucose, 5 mM HEPES; 1.25 mM CaCl2; pH 7.4) containing 2.5 mM probenecid and 0.1% BSA (Ca^++-buffer). The cells were preincubated with a concentration range of antagonists for 20 min at RT and Ca^++-signals after addition of the agonists were measured in a Fluorescence Image Plate Reader (FLIPR from Molecular Devices, Crawley, England). The peak of the Ca^++-transient was considered as the relevant signal and the mean values of corresponding wells were analysed as described below.
The sigmoidal dose response curves were analysed by computerised curve-fitting, using the GraphPad program. The EC50-value of a compound is the effective dose showing 50% of maximal effect. For mean curves the response to the agonist with the highest potency was normalised to 100%. For antagonist responses the IC50-value was calculated using non-linear regression.
The last columns indicates—without being limited thereto—for which use the compounds might be most suitable. Of course, since for some neurokinin receptors no data was determined, it is obvious that these compounds might be attributed to another suitable use.

NK1 = NK1 (Homo sapiens, UniProt P25103); assay: Signal transduction (ST), intracellular Ca++ FLIPR, NK1; type: cell-based; details: antagonist, Ca++ transient peak
Procedure: as §1
The sigmoidal dose response curves were analysed by computerised curve-fitting, using the GraphPad program. The EC50-value of a compound is the effective dose showing 50% of maximal effect. For mean curves the response to the agonist with the highest potency was normalised to 100%. For antagonist responses the IC50-value was calculated using non-linear regression. […]

| Compound | NK3 pIC50 (NK3) | NK1 pIC50 (NK1) |
| --- | --- | --- |
| O=C(CC1CCN(C(=O)c2cc(C(F)(F)F)cc(C(F)(F)F)c2)[C@@H](Cc2ccccc2)C1)N1CCN(C2CCN(C(=O)c3ccccc3F)C2)CC1 (stereo partly shown) | ˜5.45 | 7.25 |
| O=C(C1CC1)N1CCC(N2CCN(C[C@H]3CCN(C(=O)c4cc(C(F)(F)F)cc(C(F)(F)F)c4)[C@H](Cc4ccccc4)C3)CC2)CC1 | 5.41 | 7.04 |
| COc1cc(C(=O)N2CCC(N3CCN(C[C@@H]4CCN(C(=O)c5cc(C(F)(F)F)cc(C(F)(F)F)c5)[C@@H](Cc5ccccc5)C4)CC3)CC2)cc(OC)c1OC (relative stereo) |  | 6.64 |
| O=C(CC1CCN(C(=O)c2cc(C(F)(F)F)cc(C(F)(F)F)c2)[C@@H](Cc2ccccc2)C1)N1CCN(C2CCN(C(=O)c3c[nH]c4ccccc34)C2)CC1 (stereo partly shown) | 5.22 | 7.8 |
